Data on two compounds can be found in PubChem BioAssay AID493152 (Sanford-Burnham Center for Chemical Genomics, 2011).

Amino acid sequences for entries named in this document (tags omitted). A change or cut given only in a name is not applied to a line headed by its entry.
UniProt Q9HC16: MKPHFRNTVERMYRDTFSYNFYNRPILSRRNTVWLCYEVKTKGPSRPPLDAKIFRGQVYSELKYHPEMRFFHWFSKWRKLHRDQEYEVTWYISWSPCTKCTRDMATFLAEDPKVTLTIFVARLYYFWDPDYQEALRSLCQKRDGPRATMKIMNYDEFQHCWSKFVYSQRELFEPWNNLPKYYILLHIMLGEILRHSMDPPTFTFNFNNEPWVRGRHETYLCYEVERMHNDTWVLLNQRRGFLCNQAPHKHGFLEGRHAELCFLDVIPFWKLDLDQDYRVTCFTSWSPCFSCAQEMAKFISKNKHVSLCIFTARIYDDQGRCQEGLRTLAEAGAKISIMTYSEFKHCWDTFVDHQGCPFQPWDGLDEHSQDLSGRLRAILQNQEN

The list shows a part of the results, in another mix than the full data. Active and inactive are the calls of the source.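 How the source made its calls: active means inhibition reaching a set limit in any replicate at 20 µM, the limit being 80% of the first screen's; inactive means the rest.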

For the assay, the target named is DNA dC->dU-editing enzyme APOBEC-3G (Homo sapiens) (UniProt Q9HC16). In words: APOBEC3G deaminase inhibitor retest, confirmation, biochemical, fluorescence, single-stranded DNA substrate, single concentration (AID 493152). Conditions: recombinant A3G ssDNA deaminase, UDG/FAM-TAMRA fluorescence; at 20 µM; stronger effect = higher value.

What is called inhibition is the percentage by which the read-out fell short of the control. As for `O=P(Nc1nccs1)(c1ccccc1)c1nc2ccccc2s1` (configuration not stated), the inhibition is active: 82.4%.

Regarding `CS(=O)(=O)c1cc([N+](=O)[O-])c2no[n+]([O-])c2c1`, the inhibition is active: 44.1%.
